Article PMC5958115, “A novel small molecule chaperone of rod opsin and its potential therapy for retinal degeneration” (Nature Communications, 2018)

Target: mouse P23H-opsin mutant (Mus musculus, UniProt P15409, P23H)
Experiment: β-Gal fragment complementation assay: rescue of P23H opsin transport from ER to plasma membrane, U2OS(PLC-EA/P23H-PK) cells
Type: cell-based

| activity in rescuing P23H-opsin transport (in words) | SMILES |
| --- | --- |
| relatively higher efficacies | O=C1OCC(c2ccc(Cl)s2)=C1c1ccccc1[N+](=O)[O-] |
| some activity that remained | O=C1OCC(c2ccc(F)s2)=C1c1cccs1 |
| lower efficacies | O=C1OCC(c2ccc(Cl)s2)=C1c1cccc(Cl)c1 |
| relatively higher efficacies | COc1ccccc1C1=C(c2ccc(Cl)s2)COC1=O |
| some activity that remained | O=C1OCC(c2cccs2)=C1c1cccs1 |
